This is a selection; strong and weak results do not stand in their true shares. Some of these compounds have results that are not shown, active ones among them. Activity calls are given as the source filed them.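 How the source made its calls: active means mean inhibition of replicates at least 50% and at least half of replicates each reaching 50%; inconclusive means half or more replicates reach 50% but mean below 50%; inactive means the rest.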

The experiment deals with Transforming acidic coiled-coil-containing protein 3 (Homo sapiens) (UniProt Q9Y6A5). Kind of experiment: disruptors of ARNT/TACC3 protein interaction, primary screen, biochemical, AlphaScreen, single concentration (AID 623870).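 Further: 0% = complete ARNT plus TACC3 wells and 100% = ARNT alone without TACC3.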 As to conditions: AlphaScreen His-ARNT PAS-B/GST-TACC3 binding, luminescence; at 9.99 µM; stronger effect = higher value; TACC3 fragment carries E629A point mutation.
Consider `CN(C)C1(CNC(=O)c2ccc(Br)cc2)CCCCC1`, for which the inhibition is inactive: -5.24%.
To `COc1cc(C(=O)NCC2(N(C)C)CCCCC2)c([N+](=O)[O-])cc1OC` belongs inactive: -0.232%; to `COc1ccc(Cl)cc1C(=O)NCC1(N(C)C)CCCCC1`, inactive: -0.893%; to `COc1cccc(C(=O)NCC2(N3CCCCC3)CCCCC2)c1`, inactive: -10.8%.
As for `O=C(NCC1(N2CCCCC2)CCCCC1)c1cccc(Cl)c1`, the inhibition was inactive: 0.172%.
In the case of `O=C(OC1CN2CCC1CC2)C(CO)(c1ccccc1)c1ccccc1` (centres undefined), the inhibition was inactive: 5.41%.
Then `COc1ccc(Br)c(C(=O)NCC2(N3CCCCC3)CCCCC2)c1`, with inactive: 3.69%.
To `O=C(OCCN1CCCC1)C(O)(c1ccccc1)c1ccccc1` belongs inactive: -0.337%; to `CC(C)Oc1ccc(C(=O)NCC2(N(C)C)CCCCC2)cc1`, inactive: 0.556%; to `CN(C)c1cccc(C(=O)NCC2(N(C)C)CCCCC2)c1`, inactive: -1.67%.
To `O=C(NCC1(N2CCCCC2)CCCCC1)c1cc([N+](=O)[O-])ccc1Cl` belongs inactive: 2.22%.
`CN1[C@@H]2CC[C@H]1CC(OC(=O)C(O)(c1ccccc1)c1ccccc1)C2` (some centres undefined): the inhibition is inactive: -9.85%.
Then `COc1cc(SC)ccc1C(=O)NCC1(N(C)C)CCCCC1`, with inactive: -5.63%.
To `CCN(CC)CC(C)C(C)OC(=O)C(O)(c1ccccc1)c1ccccc1` (centres undefined) belongs inactive: -1.56%; to `CC(C)N1C(=O)CC2(CCN(CCOC(=O)C(O)(c3ccccc3)c3ccccc3)CC2)C1=O`, inactive: -5.23%.
For the compound `CN(C)c1ccc(C(=O)NCC2(N(C)C)CCCCC2)cc1`, the inhibition was inactive: -3.49%.
To `CN(C)C1CCCC1OC(=O)C(O)(c1ccccc1)c1ccccc1` (centres undefined) belongs inactive: -8.29%.
Then `Cc1ccccc1C(=O)NCC1(N2CCCCC2)CCCCC1`, with inactive: -2.88%.
Then `O=C(NCC1(N2CCCCC2)CCCCC1)c1cc(F)c(F)cc1Cl`, with inactive: 0.936%.
Turning to `C=CCN1CCN(CCOC(=O)C(O)(c2ccccc2)c2ccccc2)CC1`, the inhibition is inactive: -4.61%.
`COc1ccc(C(=O)NCC2(N(C)C)CCCCC2)cc1`: the inhibition was inactive: 1.33%.
Turning to `O=C(NCC1(N2CCCCC2)CCCCC1)c1cccc(Br)c1`, the inhibition is inactive: -3.08%.
Then `CCN1CCCC(OC(=O)C2(O)c3ccccc3C=Cc3ccccc32)C1` (centres undefined), with inactive: -0.741%.
To `Cc1cc(C(=O)NCC2(N3CCCCC3)CCCCC2)ccc1[N+](=O)[O-]` belongs inactive: -8.28%.
